# Assay results as given in BindingDB's records for doi:10.1016/0006-8993(84)90856-4 (Mayo Foundation, 1984).
# Amino acid sequences for entries named in this document (tags omitted).
# UniProt P35367, whole entry: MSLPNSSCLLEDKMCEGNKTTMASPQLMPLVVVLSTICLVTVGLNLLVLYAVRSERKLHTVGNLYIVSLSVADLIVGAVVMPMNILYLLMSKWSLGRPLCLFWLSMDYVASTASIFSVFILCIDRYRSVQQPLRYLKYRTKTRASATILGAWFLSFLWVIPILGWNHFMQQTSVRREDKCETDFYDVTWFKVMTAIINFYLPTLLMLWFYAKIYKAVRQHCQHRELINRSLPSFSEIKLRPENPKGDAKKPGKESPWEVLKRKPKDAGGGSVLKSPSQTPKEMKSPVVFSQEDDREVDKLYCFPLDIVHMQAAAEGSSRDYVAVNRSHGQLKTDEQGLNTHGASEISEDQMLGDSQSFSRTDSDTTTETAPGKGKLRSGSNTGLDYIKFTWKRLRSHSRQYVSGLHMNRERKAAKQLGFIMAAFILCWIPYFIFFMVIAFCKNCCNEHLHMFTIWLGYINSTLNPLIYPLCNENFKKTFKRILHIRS
# Biological target: Histamine H1 receptor (Homo sapiens, UniProt P35367)
row,Compound,pKi
1,"CN1CCN(C2=c3ccccc3=Nc3ccc(Cl)cc3N2)CC1 [6-chloro-10-(4-methylpiperazin-1-yl)-2,9-diazatricyclo[9.4.0.0^{3,8}]pentadeca-1,3(8),4,6,10,12,14-heptaene]",8.92
2,CN1CCN(CC/C=C2/c3ccccc3Sc3ccc(S(=O)(=O)N(C)C)cc32)CC1 [MLS000028463],8.36

# pKi: −log10 of the molar value.
